# Values quoted from earlier work, collected in patent publication US20060036094A1, “Method for producing zoanthamine alkaloid and intermediate used in same” (priority 2004, published 2006).
# Tested on: ovariectomized mice
smiles,measurement,value
CC1=CC(=O)[C@H]2CC(=O)[C@H]3[C@@](C)(C[C@@]45OC(=O)C[C@]3(C)[C@]4(C)CC[C@]34C[C@@H](C)C[C@H](CN35)O4)[C@@H]2C1 [norzoanthamine],suppression of loss of bone weight and strength,significantly suppress loss of bone weight and strength
